Tested on: isolated renal cortical cells (IRCC)
Assay: LDH release from isolated renal cortical cells
Settings: for Effect of pretreatment on 4-A2CP cytotoxicity: 4-A2CP 0.5 and 1.0 mM, pretreatment concentration and time per Table 1

SMILES	Cytotoxicity (LDH release) in words (aminophenol 0.5 mM, IRCC, 1 h (Fig. 2))	Effect of pretreatment on 4-A2CP cytotoxicity
Nc1ccc(O)cc1 [4-AP, 4-aminophenol]	Cytotoxicity was not observed	
CC(=O)N1CCN(c2ccc(OCC3COC(Cn4ccnc4)(c4ccc(Cl)cc4Cl)O3)cc2)CC1 (stereo not drawn) [Ketoconazole]		No alteration
Cn1cc[nH]c1=S [Methimazole]		No alteration

Reference: article PMC4402242 (Chemico-biological interactions, 2014)
